In one experiment the target is Carbonic anhydrase 1 (Homo sapiens, UniProt P00915).
The target of the next experiment is T1, Carbonic anhydrase 4 (Bos taurus, UniProt Q95323).
T1 sequence (Q95323 whole entry): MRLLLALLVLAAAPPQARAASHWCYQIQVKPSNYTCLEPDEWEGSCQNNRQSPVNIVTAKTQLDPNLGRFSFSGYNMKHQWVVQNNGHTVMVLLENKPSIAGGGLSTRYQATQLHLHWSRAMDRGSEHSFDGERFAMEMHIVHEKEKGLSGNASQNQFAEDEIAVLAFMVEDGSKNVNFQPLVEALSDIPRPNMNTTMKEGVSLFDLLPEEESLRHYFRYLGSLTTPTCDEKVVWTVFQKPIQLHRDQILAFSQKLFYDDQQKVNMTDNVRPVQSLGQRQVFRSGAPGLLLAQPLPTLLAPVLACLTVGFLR

Protein sequences, listed by entry. Tags and fused reporters are not part of them. Lines headed by an entry give the natural chain unless they say otherwise; changes in a name come on top.
UniProt P00915: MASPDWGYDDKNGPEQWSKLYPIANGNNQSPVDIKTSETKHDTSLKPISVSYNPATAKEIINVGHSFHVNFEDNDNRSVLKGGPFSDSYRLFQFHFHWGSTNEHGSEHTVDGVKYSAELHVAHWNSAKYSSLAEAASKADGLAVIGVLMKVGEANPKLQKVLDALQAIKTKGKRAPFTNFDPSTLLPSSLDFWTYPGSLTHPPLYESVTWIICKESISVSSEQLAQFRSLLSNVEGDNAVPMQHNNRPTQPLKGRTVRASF

Each structure is given as a SMILES string.

In general, Ki refers to a measure of affinity in units of concentration, obtained from inhibition or displacement. In the case of `NS(=O)(=O)c1ccc(CCNC(=O)c2cccc(C(=O)O)n2)cc1`, at Carbonic anhydrase 1, the inhibition constant (Ki) amounted to 550 nM. On to `NS(=O)(=O)c1ccc(CNC(=O)c2cccc(C(=O)O)n2)cc1`, for which the Ki on Carbonic anhydrase 4 turned out to be 70 nM.

The values above are taken from ChEMBL document CHEMBL1132301, “Carbonic anhydrase inhibitors. Synthesis of water-soluble, topically effective, intraocular pressure-lowering aromatic/heterocyclic sulfonamides containing cationic or anionic moieties: is the tail more important than the ring?” (J Med Chem, 1999).
